The assay has as its target T1, BCL-2-D111A (Homo sapiens, UniProt P10415, D111A/DEL35-91/INS34DVEENRTEAPEGTESE).
T1 construct: A chimeric human BCL-2 (including residues 1–50 and 92–207) was constructed; SUMO (pET28a-Sumo vector); made in house; host or cells: E. coli BL21 (DE3)
As to the kind of experiment: SPR binding assay, BCL-2 D111A mutant. The note with it: affinity fitting, mean ± SD of three independent experiments.

The chains behind the UniProt entries cited, without tags or fusion partners. A line that says so, or that is headed by a name, gives the form on record, which may keep a tag or linker.
UniProt P10415, with tags, fused parts or gaps with the stated changes: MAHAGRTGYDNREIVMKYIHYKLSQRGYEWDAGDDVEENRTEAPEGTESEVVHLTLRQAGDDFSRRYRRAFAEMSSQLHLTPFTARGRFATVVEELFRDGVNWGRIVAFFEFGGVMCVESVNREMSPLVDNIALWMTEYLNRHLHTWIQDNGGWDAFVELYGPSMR

Drawing on article PMC10874388, “Cyclic peptides discriminate BCL-2 and its clinical mutants from BCL-XL by engaging a single-residue discrepancy” (Nature Communications, 2024), this text covers Kd for one compound.

Each structure is given as a SMILES string.

As for `O=C(c1cc(-c2cc3c(cc2C(=O)N2Cc4ccccc4C[C@H]2CN2CCOCC2)OCO3)n2c1CCCC2)N(c1ccccc1)c1ccc(O)cc1` [S55746], the Kd was 6 ± 3 nM.
